Our source for the IC50 values is EP0973746B1, “SUBSTITUTED 3-CYANO QUINOLINES” (Wyeth Holdings Corporation, priority 1997, dated 1998).

Chains of the proteins cited; added tags and fusions are not shown. Residues count along the entry.
UniProt P00533, 25-1210: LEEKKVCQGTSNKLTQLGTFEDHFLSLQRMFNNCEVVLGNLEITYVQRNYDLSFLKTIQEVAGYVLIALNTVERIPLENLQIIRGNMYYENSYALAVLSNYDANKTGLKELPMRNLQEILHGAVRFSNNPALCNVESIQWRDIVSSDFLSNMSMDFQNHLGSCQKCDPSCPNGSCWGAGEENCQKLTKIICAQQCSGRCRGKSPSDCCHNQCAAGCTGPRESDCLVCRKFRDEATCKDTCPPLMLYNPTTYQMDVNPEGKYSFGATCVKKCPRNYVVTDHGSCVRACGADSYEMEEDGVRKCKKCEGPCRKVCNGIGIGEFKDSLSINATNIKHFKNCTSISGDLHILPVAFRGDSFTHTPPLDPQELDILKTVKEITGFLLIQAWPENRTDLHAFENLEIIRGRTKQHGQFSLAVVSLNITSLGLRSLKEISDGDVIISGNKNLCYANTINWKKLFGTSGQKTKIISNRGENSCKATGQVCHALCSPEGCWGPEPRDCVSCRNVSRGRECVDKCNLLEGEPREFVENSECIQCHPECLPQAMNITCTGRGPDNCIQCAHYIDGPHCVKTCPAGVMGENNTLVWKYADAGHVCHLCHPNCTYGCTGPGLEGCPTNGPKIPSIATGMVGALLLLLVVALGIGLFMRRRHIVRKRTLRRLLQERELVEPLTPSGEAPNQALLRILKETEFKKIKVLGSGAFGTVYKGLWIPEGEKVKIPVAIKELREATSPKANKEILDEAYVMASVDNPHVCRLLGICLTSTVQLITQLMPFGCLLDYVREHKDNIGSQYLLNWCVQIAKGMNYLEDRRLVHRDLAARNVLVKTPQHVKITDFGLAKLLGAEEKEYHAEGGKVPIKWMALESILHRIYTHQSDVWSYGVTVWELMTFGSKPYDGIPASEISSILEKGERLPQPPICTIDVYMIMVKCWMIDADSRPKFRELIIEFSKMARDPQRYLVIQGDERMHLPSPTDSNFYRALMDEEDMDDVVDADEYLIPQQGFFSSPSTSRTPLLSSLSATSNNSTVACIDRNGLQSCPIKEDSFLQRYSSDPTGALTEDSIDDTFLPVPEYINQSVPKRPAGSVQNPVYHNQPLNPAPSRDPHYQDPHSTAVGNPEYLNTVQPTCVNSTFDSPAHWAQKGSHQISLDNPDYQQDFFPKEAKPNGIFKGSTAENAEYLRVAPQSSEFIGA

The target of experiment [1] is epidermal growth factor receptor kinase (Homo sapiens, UniProt P00533). The experiment can be described thus: biochemical.
Experiment [2] addresses recombinant human MEK 1 (MAPKK) and recombinant human ERK2 (MAPK). The experiment can be described thus: Mitogen Activated Protein Kinase (MAPK) assay, two component coupled MEK 1 / ERK2.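 Further: MEK 1-activated ERK2 phosphorylates MBP or Myc peptide with 33P-ATP, filter capture and scintillation counting, inhibitor preincubated with ERK2 30 min at 0 °C, inhibition relative to uninhibited control.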 Type of experiment: biochemical. The following applies: separate entries for the same compound = evaluated more than one time.

On to `COc1cc2ncc(C#N)c(Nc3cccc(C(F)(F)F)c3)c2cc1OC` [Example 42, 4-[(3-Trifluoromethylphenyl)amino]-6,7-dimethoxy-3-quinolinecarbonitrile], for which, in experiment [1], the IC50 was determined as 1.5 µM.

For `CN1CCN(CC#CC(=O)Nc2ccc3ncc(C#N)c(Nc4cccc(Br)c4)c3c2)CC1` [Example 190, N-[4-[(3-Bromophenyl)amino]-3-cyano-6-quinolinyl]-4-(N-methylpiperazino)-2-butynamide], the IC50 in experiment [2] turned out to be 12 µM.
